We go through one compound from US20260384765A1, “ANTHRANILATE SYNTHASE MUTANT AND USE THEREOF” (published 2026).

Assay [1] addresses TrpE (S40F) (anthranilate synthase mutant) (Escherichia coli, UniProt P00895, S40F). The assay can be described thus: Determination of tryptophan inhibition curves, TrpE (S40F). The conditions noted are these: role: inhibitor, substrate chorismate 300 μM, enzyme 0.1 μM, pH 9.0, 30 °C. The method, then:
(§1) Experimental steps: a reaction buffer was prepared to contain 100 mM NH4Cl, 10 mM MgCl2, 20 mM Tris-HCl, and 0.1 mM ethylenediaminetetraacetic acid (EDTA), and the pH was adjusted to 9.0. 50 ml of the buffer was prepared into an 8 g/L tryptophan buffer, and the pH was adjusted to 9.0. The buffers prepared in the previous two steps were mixed in proportion to obtain tryptophan buffers having different concentrations. In a completely black, opaque microplate, 200 μl of tryptophan buffers having different concentrations were added, and the mutant enzyme solution prepared in Example 2 was added to a final concentration of 0.1 μM, followed by incubation at 30 °C for 10 min. […] A fluorescence microplate reader was used to measure the fluorescence value at 400 nm after excitation at 320 nm, with detection performed once every ten seconds. The microplate reader automatically plotted a curve of fluorescence value over time. The concentration of the reaction product anthranilate and the fluorescence value were in a linear relationship when the anthranilate concentration was within 0-50 μM. The initial slope of the curve plotted by the microplate reader when the tryptophan concentration was 0 was defined as enzyme activity=1.0, and the ratio of the slope under different tryptophan concentrations to the slope without feedback inhibition was defined as relative enzyme activity. […]

Assay [2] addresses TrpE (S40M/S94N) (anthranilate synthase mutant) (Escherichia coli, UniProt P00895, S40M/S94N). The assay can be described thus: Determination of tryptophan inhibition curves, TrpE (S40M/S94N). To be noted: role: inhibitor, with reference to Examples 2 and 3 (substrate chorismate 300 μM; pH 9.0; 30 °C). The method, then: as §1
The target of assay [3] is TrpE (S40M) (anthranilate synthase mutant) (Escherichia coli, UniProt P00895, S40M). Kind of assay: Determination of tryptophan inhibition curves, TrpE (S40M). To be noted: role: inhibitor, substrate chorismate 300 μM, pH 9.0. As to the method: Experimental steps: a reaction buffer was prepared to contain 100 mM NH4Cl, 10 mM MgCl2, 20 mM Tris-HCl, and 0.1 mM ethylenediaminetetraacetic acid (EDTA), and the pH was adjusted to 9.0. 50 ml of the buffer was prepared into an 8 g/L tryptophan buffer, and the pH was adjusted to 9.0. The buffers prepared in the previous two steps were mixed in proportion to obtain tryptophan buffers having different concentrations. In a completely black, opaque microplate, 200 μl of tryptophan buffers having different concentrations were added, and the mutant enzyme solution prepared in Example 2 was added to a final concentration of 0.1 μM, followed by incubation at 30 °C for 10 min. Chorismate at a final concentration of 300 μM (large excess) was added to initiate the reaction. A fluorescence microplate reader was used to measure the fluorescence value at 400 nm after excitation at 320 nm, with detection performed once every ten seconds. The microplate reader automatically plotted a curve of fluorescence value over time. The concentration of the reaction product anthranilate and the fluorescence value were in a linear relationship when the anthranilate concentration was within 0-50 μM. The initial slope of the curve plotted by the microplate reader when the tryptophan concentration was 0 was defined as enzyme activity=1.0, and the ratio of the slope under different tryptophan concentrations to the slope without feedback inhibition was defined as relative enzyme activity. The inhibition constant Ki value was calculated by fitting using the formula Y=(1−((((Et+X+(Ki*(1+(S/Km))))−(((Et+X+(Ki*(1+(S/Km))))^2)−4*Et*X)^0.5))/(2*Et))), wherein Y is enzyme activity, Et is enzyme concentration, X is inhibitor concentration, S is substrate concentration, and Km is the Michaelis constant of the enzyme.

The target of assay [4] is wild-type TrpE (anthranilate synthase) (Escherichia coli, UniProt P00895). Kind of assay: Determination of tryptophan inhibition curves, wild-type TrpE. The conditions noted are these: role: inhibitor, substrate chorismate 300 μM, enzyme 0.1 μM, pH 9.0, 30 °C. As to the method: as §1

For the compound `N[C@@H](Cc1c[nH]c2ccccc12)C(=O)O`, the “feedback inhibition constant Ki of tryptophan” value stood at 275.2 µg/mL in assay [1]; 587.2 µg/mL in assay [2]; 457.9 µg/mL in assay [3] (S40M, enzyme 0.1 μM, 30 °C); 1.1 µg/mL in assay [4]. Moreover, the “Ki for inhibition by tryptophan relative to that of S40F” value in assay [3] (S40M vs S40F) is given as “about 1.7 times”. The “increase of inhibition constant Ki for tryptophan compared with the wild type” value in assay [3] (S40M vs wild type) is given as “more than 400 fold”.
